Read-outs that look alike come from different tables or passages of the source.
Assay: Approximate ropivacaine solubility in excipients, assessed visually
Assay type: physicochemical

| % Solubility (ropivacaine in candidate excipient) | Substance | % Solubility (ropivacaine in candidate excipient) (solubility of ropivacaine in the named excipient, gradual addition at room temperature, visual) |
| --- | --- | --- |
| 4.5-5.1 % w/v | glycerol monocaprylate/caprate [Capmul-MCM-EP] | – |
| 5.5-6.0 % w/v | mono/diglycerides capric acid [Capmul-MCM-C8-EP] | – |
| – | sorbitan trioleate [Span 85] | 3.1-3.9 % w/v |
